## Apparent affinities of Ab-95 variants for a coronavirus HR2 peptide

Values reported by Engelhart et al. 2022, doi:10.1038/s41597-022-01779-4 (FLAb copy).

Antigen: PDVDLGDISGINAS, a 14-residue peptide of the SARS-CoV-2 spike HR2 region.

Parent: Ab-95, a human scFv built as VH, a (GGGGS)3 linker, VL. Only the CDRs of the light chain vary.
VH: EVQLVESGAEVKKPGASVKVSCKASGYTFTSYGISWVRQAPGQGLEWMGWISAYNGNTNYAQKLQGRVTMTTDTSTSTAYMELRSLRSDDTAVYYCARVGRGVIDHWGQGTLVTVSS
VL: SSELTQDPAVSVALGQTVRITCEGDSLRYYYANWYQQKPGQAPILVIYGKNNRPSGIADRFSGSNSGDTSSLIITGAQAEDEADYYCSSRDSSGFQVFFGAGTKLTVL

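The starting antibody came from a phage panning campaign against this peptide. The library (AAYL52) carries one to three amino acid substitutions per variant, with no insertions or deletions. AlphaSeq pools MATa yeast showing the antibodies with MATalpha yeast showing the peptide. The frequency of each diploid, read from paired DNA barcodes, reflects how well the two displayed proteins bind. A regression on co-assayed BCL2-family reference pairs converts the normalised counts of each replicate to an apparent Kd. Each pool was mated in three replicate cultures.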

Substitutions are numbered in sequence along the VL above, starting at 1 (not Kabat). Scale: log10 of Kd in nM, estimated from mating counts; low values are strong binders. Averages over replicates are reported, and they cover detected replicates only. Where no diploid with the target was found in any replicate, the entry reads "nd": below detection, most likely a poor binder, though not proof of it. Order: sorted from the lowest average up, undetected variants last. For reference, the parent read 2.31 as the reference entry and 2.25 as a member of this library. Nonspecific signal, from three strains lacking the peptide, appeared in 28% of pairings of library AAYL52, centred on 3.91 (5% of these signals below 2.90); values are not corrected for it.

For D25L Y30G S92M, the assay gave 0.82 (3 of 3 replicates).
For D25V Y31H K50H, the assay gave 1.59 (3 of 3 replicates).
For L27T R28G, the assay gave 1.80 (3 of 3 replicates).
For R28K S93D F95Y, the assay gave 2.46 (1 of 3 replicates).
For L27H R28W S55Q, the assay gave 2.51 (3 of 3 replicates).
For E23W N33C S93W, the assay gave 2.76 (3 of 3 replicates).
For G24L R53L, the assay gave 2.77 (3 of 3 replicates).
For K50T V97T F98R, the assay gave 2.77 (3 of 3 replicates).
For S26Y Y31A N52D, the assay gave 2.97 (3 of 3 replicates).
For L27I R28I K50L, the assay gave 3.03 (2 of 3 replicates).
For Y31S P54W G94L, the assay gave 3.12 (3 of 3 replicates).
For L27M R28S N52T, the assay gave 3.12 (1 of 3 replicates).
For S89M S92Y, the assay gave 3.13 (3 of 3 replicates).
For S26I N52T, the assay gave 3.25 (3 of 3 replicates).
For K50D N51V R90N, the assay gave 3.31 (2 of 3 replicates).
For P54Y S92A F98M, the assay gave 3.34 (3 of 3 replicates).
For D25E Y30F P54D, the assay gave 3.52 (3 of 3 replicates).
For D25C R28A F98K, the assay gave 3.52 (1 of 3 replicates).
For S55K Q96T V97K, the assay gave 3.63 (3 of 3 replicates).
For K50W N52S P54S, the assay gave 3.70 (2 of 3 replicates).

Continued, with the values leading:

Result 3.78 (3 of 3 replicates), variant K50W S89C S92M.
Result 3.88 (1 of 3 replicates), variant Y30D A32I S88L.
Result 3.95 (2 of 3 replicates), variant L27C S93T.
Result 3.97 (3 of 3 replicates), variant N52H S88K.
Result 4.01 (2 of 3 replicates), variant E23Q G49K Q96N.
Result 4.25 (1 of 3 replicates), variant G24H Y30I N33K.
Result 4.31 (1 of 3 replicates), variant S26V K50W P54R.
Result 4.35 (3 of 3 replicates), variant E23R Y29D N33Y.
Result 4.46 (1 of 3 replicates), variant R90C S93V F98S.
Result 4.64 (1 of 3 replicates), variant G49P N52D D91Q.
Result 4.99 (1 of 3 replicates), variant S26G Y31V S88K.
Result 5.09 (2 of 3 replicates), variant A32L K50L.
Result 5.21 (1 of 3 replicates), variant Y31F N52W S89R.
Result 5.29 (1 of 3 replicates), variant N52P S92Y V97H.
Result nd (0 of 3 replicates), variant Y29N R90N V97M.
Result nd (0 of 3 replicates), variant G49R N51S S92P.
Result nd (0 of 3 replicates), variant D25R L27R V97R.
Result nd (0 of 3 replicates), variant R28D P54Y F95P.
Result nd (0 of 3 replicates), variant S26P N33Y F95C.
Result nd (0 of 3 replicates), variant G24L Q96K.
Result nd (0 of 3 replicates), variant E23Y P54I S93L.

The 5 strongest on average among those seen in every replicate, once more:

For D25L Y30G S92M, the assay gave 0.82 (3 of 3 replicates).
For D25V Y31H K50H, the assay gave 1.59 (3 of 3 replicates).
For L27T R28G, the assay gave 1.80 (3 of 3 replicates).
For L27H R28W S55Q, the assay gave 2.51 (3 of 3 replicates).
For E23W N33C S93W, the assay gave 2.76 (3 of 3 replicates).